Here are results for 1 substance from patent US20140147411A1, “METHODS OF TREATING CANCER AND TESTING MUTATION ZYGOSITY RELATED THERETO” (U.S. GOVERNMENT represented by the UNITED STATES DEPARTMENT …, priority 2012, published 2014).

For this assay, the system named is A375 melanoma cells. Briefly: Cell surface MHC class I, B2M and MHC class II by flow cytometry in A375 cells after interferon. The following applies: IFN-α2b alone.

In the case of “IFN-α2b: type I interferon; INTRON A is recombinant Interferon alfa-2b”, the MHCII expression entry is reported as “no impact on MHCII expression”.
